Reported properties for industrial, environmental and drug-like chemicals

Data: OPERA 2.9 data sets, kmansouri/OPERA on GitHub.

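The numbers are reported measurements, compiled and curated for the OPERA QSAR suite. A listed value is a point estimate from one report or more. Conditions of the individual experiments are not part of the data. A value may pool stereoisomers or salt forms, and the file does not say which form was measured. Unmarked limits or estimates from the upstream databases cannot be ruled out.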

Melting points are in °C. Boiling points are in °C, nominally at 760 mmHg. logP is the log10 of the octanol-water partition coefficient; higher is more lipophilic. Water solubility is log10 of mol/L, nominally at 25 °C; higher is more soluble. Vapor pressure is log10 of mmHg; the set covers 15 to 30 °C, mostly 20 to 25 °C. fu is the fraction unbound in human plasma, from 0 to 1.

CCCCCCC(O)CCCCCCCCCCC(=O)OC (centres undefined) has log Kow 5.467 and water solubility -3.907 (log10 mol/L).
C/C=C/CC[C@H]1CC[C@H]([C@H]2CC[C@H](CCC)CC2)CC1 has MP 75.1 °C and BP 365.8 °C and water solubility -5.517 (log10 mol/L) and log vapor pressure -6.06 (log10 mmHg).
CC(C)(c1ccccc1)c1ccc(OS(=O)(=O)c2cc([N+]#N)c([O-])c3ccccc23)cc1 has MP 120 °C and log Kow 5.2 and water solubility -7.347 (log10 mol/L) and log vapor pressure -10.04 (log10 mmHg).
CCCCCCCCC(CCCCCC)C(=O)OCC(=O)Nc1ccc(-c2nn3nc(C(C)(C)C)c(Cl)c3[nH]2)cc1 (centres undefined) has MP 167 °C and water solubility -8.166 (log10 mol/L) and log vapor pressure -4.347 (log10 mmHg).
CC(C)(C)c1cccc(C(C)(C)C)c1O has log vapor pressure -2.119 (log10 mmHg) and fu 0.01953.
O=c1nc(-c2cc(Cl)cc(Cl)c2O)[nH]c2ccccc12 has MP 360.8 °C and log Kow 3.81 and water solubility -7.056 (log10 mol/L).
COc1ccc(C(OC)OC)cc1 has log Kow 2.01 and log vapor pressure -1.743 (log10 mmHg).
Cc1ccc(Nc2c(F)cccc2Cl)c(CC(=O)O)c1 has water solubility -4.728 (log10 mol/L) and fu 0.02.
CCCCCC=CCC(CC(=O)O)C(=O)O (centres undefined) has MP 3 °C and water solubility -2.404 (log10 mol/L) and log vapor pressure -4.921 (log10 mmHg).
CC(C)C(NC(N)=O)C(=O)O (centres undefined) has MP 205 °C and water solubility -1.532 (log10 mol/L).
CC(C=O)Cc1ccc(C(C)(C)C)cc1 (centres undefined) has MP -4.75 °C and log Kow 4.2 and water solubility -3.792 (log10 mol/L) and log vapor pressure -2.446 (log10 mmHg).
C1=Nc2ccccc2OCC2(COc3ccccc3N=1)COc1ccccc1N=C=Nc1ccccc1OC2 (centres undefined) has MP 231 °C and log vapor pressure -10 (log10 mmHg).
CCOCCOC(=O)OCC has BP 194 °C and log vapor pressure -0.377 (log10 mmHg).
NC(=O)CN(CC(=O)O)CC(=O)O has log Kow -3.12 and water solubility -1.812 (log10 mol/L).
Nc1ccc(N=Nc2ccccc2)c(N)c1 has BP 293 °C and log Kow 2.422 and log vapor pressure -5.818 (log10 mmHg).
CCCCOCc1ccc(O)c(OC)c1 has MP -59 °C and log Kow 2.2 and water solubility -2.082 (log10 mol/L) and log vapor pressure -2.502 (log10 mmHg).
Cc1cnc(C(=O)NCCc2ccc(S(N)(=O)=O)cc2)cn1 has log Kow 0.2 and water solubility -4.236 (log10 mol/L) and log vapor pressure -8.126 (log10 mmHg).
COc1ccc(N2CCN(c3ccc(-n4cn[nH]c4=O)cc3)CC2)cc1 has MP 289.9 °C and water solubility -6.489 (log10 mol/L) and log vapor pressure -7.992 (log10 mmHg).
Nc1c(Cl)cc(C(F)(F)F)cc1Cl has log Kow 4.58 and water solubility -3.592 (log10 mol/L) and log vapor pressure -1.824 (log10 mmHg).
C=CC(=O)OC1CC(C)CC(C)(C)C1 (centres undefined) has MP -94.8 °C and log Kow 4.535 and water solubility -4.03 (log10 mol/L).
N=C(N)SCCC(=O)O has MP 160 °C and log Kow -2.42.
NS(=O)(=O)c1cc(C(=O)O)ccc1Cl has log Kow 0.881 and water solubility -2.49 (log10 mol/L) and log vapor pressure -4.502 (log10 mmHg).
CC(=O)[C@]1(O)Cc2c(O)c3c(c(O)c2[C@@H](O[C@H]2C[C@H](N)[C@H](O)[C@H](C)O2)C1)C(=O)c1ccccc1C3=O has log Kow 0.2 and water solubility -2.809 (log10 mol/L) and fu 0.064.
CCCCCCCCCCCCCCCC[N+](C)(C)Cc1ccccc1.[Cl-] has MP 112.5 °C and log Kow 3.321.

3 of these entries, quoted again:

Listed for Nc1ccc(N=Nc2ccccc2)c(N)c1: BP 293 °C and log Kow 2.422 and log vapor pressure -5.818 (log10 mmHg).
Listed for CC(C)C(NC(N)=O)C(=O)O (centres undefined): MP 205 °C and water solubility -1.532 (log10 mol/L).
Listed for C/C=C/CC[C@H]1CC[C@H]([C@H]2CC[C@H](CCC)CC2)CC1: MP 75.1 °C and BP 365.8 °C and water solubility -5.517 (log10 mol/L) and log vapor pressure -6.06 (log10 mmHg).